Earlier results on one compound are cited in PMC6709472 (Antimicrobial Agents and Chemotherapy, 2019).

Molecules are shown by their SMILES. Some results are limits rather than exact numbers.

For this data set, the system named is three Old World and three New World cutaneous Leishmania strains.

For orientation: EC50 means the midpoint of the concentration-response curve. `O=[N+]([O-])c1cn2c(n1)O[C@@H](COc1ccc(-c3ccc(F)cc3)nc1)CC2` [DNDI-0690]: the EC50 was less than 5 µM.
